The values that follow are results of earlier work, collected in patent US6586443B1, “Method of treating multiple sclerosis” (priority 1986, dated 2003).

For this series, the system named is Mu and Delta opiate receptor sites. The settings on record: generally rated; cited from earlier work.

As to `C=CCN1CC[C@]23c4c5ccc(O)c4O[C@H]2C(=O)CC[C@@]3(O)[C@H]1C5` [naloxone], the “Mu blocking action relative to Delta blocking action” value is recorded as “about ten”.
